Measured values from patent publication US20210393745A1, “OLIGOMER […] INSULIN-FC CONJUGATES AND THEIR MEDICAL USE” (published 2021).

Molecular target: hFcRn ectodomain (human, UniProt P55899)
Assay: SPR (Biacore 4000), Fc immobilised by amine coupling, hFcRn ectodomain as analyte, pH 6.0, 25 C, steady-state fit

B1: WT hIgG4 Fc(227-447) (other)
chain: PSCPAPEFLGGPSVFLFPPKPKDTLMISRTPEVTCVVVDVSQEDPEVQFNWYVDGVEVHNAKTKPREEQFNSTYRVVSVLTVLHQDWLNGKEYKCKVSNKGLPSSIEKTISKAKGQPREPQVYTLPPSQEEMTKNQVSLTCLVKGFYPSDIAVEWESNGQPENNYKTTPPVLDSDGSFFLYSRLTVDKSRWQEGNVFSCSVMHEALHNHYTQKSLSLSLGK
modifications: glycosylated (produced in HEK293 cells)
Work on B1 yielded a Kd of 1500 nM.
